# Experimental data from patent US20230339878A1, “SLC26A3 INHIBITORS AND USE THEREOF” (THE REGENTS OF THE UNIVERSITY OF CALIFORNIA, priority 2018, published 2023).
# Chains of the proteins cited; added tags and fusions are not shown.
# UniProt Q9WVC8, whole entry: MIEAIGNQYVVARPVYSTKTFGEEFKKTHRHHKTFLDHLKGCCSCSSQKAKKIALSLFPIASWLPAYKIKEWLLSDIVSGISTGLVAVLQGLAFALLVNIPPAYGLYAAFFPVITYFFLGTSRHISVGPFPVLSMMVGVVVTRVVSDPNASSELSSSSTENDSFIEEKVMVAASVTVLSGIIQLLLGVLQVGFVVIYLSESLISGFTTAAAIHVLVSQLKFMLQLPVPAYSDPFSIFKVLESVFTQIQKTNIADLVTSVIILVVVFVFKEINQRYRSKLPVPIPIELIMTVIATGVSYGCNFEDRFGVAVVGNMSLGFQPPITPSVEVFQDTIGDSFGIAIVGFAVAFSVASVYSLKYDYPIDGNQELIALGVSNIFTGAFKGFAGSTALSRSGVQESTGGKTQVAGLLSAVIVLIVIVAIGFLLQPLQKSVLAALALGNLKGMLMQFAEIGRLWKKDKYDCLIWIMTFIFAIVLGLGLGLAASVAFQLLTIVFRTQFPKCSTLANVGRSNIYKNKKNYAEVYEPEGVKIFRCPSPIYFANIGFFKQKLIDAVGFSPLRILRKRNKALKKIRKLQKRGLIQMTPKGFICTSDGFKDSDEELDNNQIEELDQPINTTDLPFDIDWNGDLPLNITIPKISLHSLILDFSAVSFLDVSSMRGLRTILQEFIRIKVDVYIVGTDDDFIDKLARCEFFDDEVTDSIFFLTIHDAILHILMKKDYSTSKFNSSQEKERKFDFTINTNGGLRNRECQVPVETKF
# Molecular target: murine slc26a3 (Mus musculus, UniProt Q9WVC8)
# Experiment: slc26a3-mediated Cl-/I- exchange, YFP fluorescence quenching in FRT-YFP-slc26a3 cells
# Format: cell-based
# Details: read-out: IC50 for inhibition of slc26a3-mediated Cl-/I- exchange
smiles,measurement,value
O=C(CSc1nccn1-c1ccc(F)cc1)Nc1ccc(Br)cc1,IC50,9 µM
